From US10131663B2, “Chemical compounds” (AstraZeneca AB, priority 2016, dated 2018) come the findings set out here.

Protein sequences, listed by entry. Tags and fused reporters are not part of them. Lines headed by an entry give the natural chain unless they say otherwise; changes in a name come on top. Residues count along the entry.
UniProt P03372, 307-554: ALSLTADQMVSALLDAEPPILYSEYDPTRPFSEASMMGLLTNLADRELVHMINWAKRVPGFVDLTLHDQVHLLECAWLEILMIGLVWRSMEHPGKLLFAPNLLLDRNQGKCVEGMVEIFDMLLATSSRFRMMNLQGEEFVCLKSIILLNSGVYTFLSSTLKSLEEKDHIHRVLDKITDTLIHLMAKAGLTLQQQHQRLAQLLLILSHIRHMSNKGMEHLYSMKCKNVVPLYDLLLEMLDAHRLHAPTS
UniProt P03372, whole entry: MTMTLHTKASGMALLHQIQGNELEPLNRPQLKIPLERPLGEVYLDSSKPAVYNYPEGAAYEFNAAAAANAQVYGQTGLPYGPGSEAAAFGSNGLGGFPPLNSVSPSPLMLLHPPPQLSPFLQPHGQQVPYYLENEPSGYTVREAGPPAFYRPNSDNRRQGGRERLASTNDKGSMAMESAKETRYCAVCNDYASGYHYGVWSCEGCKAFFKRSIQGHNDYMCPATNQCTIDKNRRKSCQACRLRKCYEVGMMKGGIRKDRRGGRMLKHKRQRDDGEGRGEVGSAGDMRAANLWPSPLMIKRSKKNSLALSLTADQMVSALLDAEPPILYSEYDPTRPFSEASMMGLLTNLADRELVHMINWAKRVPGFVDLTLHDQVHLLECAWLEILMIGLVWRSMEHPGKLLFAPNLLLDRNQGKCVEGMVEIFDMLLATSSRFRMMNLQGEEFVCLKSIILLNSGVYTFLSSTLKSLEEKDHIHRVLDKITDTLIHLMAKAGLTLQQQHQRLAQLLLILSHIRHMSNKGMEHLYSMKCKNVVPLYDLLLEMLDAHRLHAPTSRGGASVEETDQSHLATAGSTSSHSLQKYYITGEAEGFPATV
UniProt Q12809: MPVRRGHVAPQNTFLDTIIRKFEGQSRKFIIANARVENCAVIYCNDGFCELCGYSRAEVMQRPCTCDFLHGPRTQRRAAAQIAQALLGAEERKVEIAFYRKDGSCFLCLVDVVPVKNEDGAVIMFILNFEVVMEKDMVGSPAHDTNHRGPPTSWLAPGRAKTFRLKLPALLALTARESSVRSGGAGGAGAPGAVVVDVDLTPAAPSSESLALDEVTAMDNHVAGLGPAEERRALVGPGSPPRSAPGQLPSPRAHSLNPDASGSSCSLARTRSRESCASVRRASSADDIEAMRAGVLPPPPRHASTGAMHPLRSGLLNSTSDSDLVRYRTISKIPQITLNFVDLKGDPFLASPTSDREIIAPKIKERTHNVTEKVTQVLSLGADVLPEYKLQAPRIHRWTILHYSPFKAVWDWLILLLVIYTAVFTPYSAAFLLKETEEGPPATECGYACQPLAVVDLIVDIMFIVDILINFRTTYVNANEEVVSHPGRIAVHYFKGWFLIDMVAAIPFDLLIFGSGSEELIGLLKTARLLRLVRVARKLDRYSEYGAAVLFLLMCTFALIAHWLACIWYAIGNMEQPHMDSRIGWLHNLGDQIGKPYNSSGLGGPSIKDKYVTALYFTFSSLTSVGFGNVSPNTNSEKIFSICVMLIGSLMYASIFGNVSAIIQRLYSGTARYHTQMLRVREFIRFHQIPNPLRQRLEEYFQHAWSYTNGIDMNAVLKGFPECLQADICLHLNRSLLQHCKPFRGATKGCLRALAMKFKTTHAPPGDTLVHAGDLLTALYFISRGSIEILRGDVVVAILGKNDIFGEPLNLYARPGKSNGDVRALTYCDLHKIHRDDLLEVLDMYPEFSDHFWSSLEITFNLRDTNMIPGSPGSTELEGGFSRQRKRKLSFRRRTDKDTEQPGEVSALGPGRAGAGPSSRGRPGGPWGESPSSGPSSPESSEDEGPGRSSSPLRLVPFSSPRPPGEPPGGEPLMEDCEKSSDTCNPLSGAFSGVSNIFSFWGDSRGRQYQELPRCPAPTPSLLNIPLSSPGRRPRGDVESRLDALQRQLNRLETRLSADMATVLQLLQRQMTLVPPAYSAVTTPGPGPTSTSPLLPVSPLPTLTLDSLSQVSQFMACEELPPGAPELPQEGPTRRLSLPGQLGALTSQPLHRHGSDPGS

The structures appear in SMILES notation. Bounds are passed on as bounds.

The target in series [1] is recombinant human Estrogen Receptor alpha ligand binding domain (ER alpha-LBD (GST)) (Homo sapiens (Human), UniProt P03372). Kind of series: ERα binding assay (LanthaScreen TR-FRET competition). To be noted: displacement of Fluormone ES2. As to the method: The ability of compounds to bind to isolated Estrogen Receptor Alpha Ligand binding domain (ER alpha-LBD (GST)) was assessed in competition assays using a LanthaScreen™ Time-Resolved Fluorescence Resonance Energy Transfer (TR-FRET) detection end-point. […] The assay principle is that ER alpha-LBD (GST) is added to a fluorescent ligand to form a receptor/fluorophore complex. A terbium-labelled anti-GST antibody (Product code PV3551) is used to indirectly label the receptor by binding to its GST tag, and competitive binding is detected by a test compound's ability to displace the fluorescent ligand, resulting in a loss of TR-FRET signal between the Tb-anti-GST antibody and the tracer. The assay was performed as follows with all reagent additions carried out using the Beckman Coulter BioRAPTR FRD microfluidic workstation: • 1. Acoustic dispense 120 nL of the test compound into a black low volume 384 well assay plates. • 2. Prepare 1×ER alpha-LBD/Tb-antiGST Ab in ES2 screening buffer and incubate for 15 minutes. • 3. […]
TR-FRET dose response data obtained with each compound was exported into a suitable software package (such as Origin or Genedata) to perform curve fitting analysis. Competitive ER alpha binding was expressed as an IC50 value.

The next series addresses hERG potassium channel (Homo sapiens (Human), UniProt Q12809). Kind of series: hERG binding assay (automated patch clamp, CHO cells). Type of series: cell-based. The following applies: CHO cell line, Nanion Syncropatch 384PE. As to the method: Reagent preparations include: • 1.
Cell preparations: • 1. If using cell culture; cells to be incubated at 30° C. for approximately 4-6 days prior to being used. Day of assay lift cells using accutase and re-suspend in 20 ml cell buffer to a density of 0.8 to 1e6 cells/ml. • 2. If using assay ready cryovials; rapidly thaw two cryovials at 37° C. and slowly pipette into 23 ml external solution • 3.
All compounds were acoustically dispensed in quadruplicate using a Labcyte Echo. […] Fill 384 well medium resistance 4 hole chips with 40 μl external buffer and perfuse internal buffer to the underside of plate. • 2. Dispense 20 μl of cells into each well of the chip followed by 20 μl of seal enhancer. • 3. Remove 40 μl of reagent from each well to the wash station, leaving a residual volume of 40 μl • 4. Dispense 40 μl of reference buffer with a removal step of 40 μl after 3 min, repeat this step. • 5.
hERG-mediated currents were elicited using a voltage step protocol consisting of acontinuous holding voltage of −80 mV, with a 500 ms step to 60 mV followed by a 500 ms step to −40 mV every 15 seconds. hERG current magnitude was measured automatically from the leak-subtracted traces by the Nanion software by taking the peak of the hERG “tail” current at −40 mV every 15 seconds and taking the last three of these responses for each concentration to generate the concentration-effect curve.
Calculation of results is performed using APC package within Genedata. For the routine normalization of well data with Neutral and Inhibitor control well groups as reference, GeneData Assay Analyzer uses the following equation to normalize the signal values to the desired signal range:
[formula] • x is the measured raw signal value of a well • is the median of the measured signal values for the Central Reference (Neutral) wells on a plate • is the median of the measured signal values for the Scale Reference (Inhibitor) wells on a plate • CR is the desired median normalized value for the Central Reference (Neutral) • SR is the desired median normalized value for the Scale Reference (Inhibitor)

The target of series [2] is Estrogen Receptor (ERα) in MCF-7 cells (Homo sapiens (Human), UniProt P03372). As to the kind of experiment: MCF-7 ER down-regulation assay (immuno-fluorescence). Format: cell-based. As to the method: The Echo uses acoustic technology to perform direct microplate-to-microplate transfers of DMSO compound solutions to assay plates. […] Cells were fixed at room temperature for 20 mins before being washed two times with 250 μL PBS/Proclin (PBS with a Biocide preservative) using a BioTek platewasher, 40 μL of PBS/Proclin was then added to all wells and the plates stored at 4° C. The fixing method described above was carried out on the Integrated Echo 2 workcell. Immunostaining was performed using an automated AutoElisa workcell. […] The plates were incubated overnight at 4° C. […] The mean total intensity was normalized for cell number giving the total intensity per cell. The data was exported into a suitable software package (such as Origin) to perform curve fitting analysis.

For the compound `COc1cc(NC2CN(CCCF)C2)ccc1[C@@H]1c2ccc3[nH]ncc3c2C[C@@H](C)N1CC(C)F` (single isomer, unassigned) [Example 68], the IC50 in series [1] was 15 nM; on hERG potassium channel, over 40000 nM; in series [2], 0.4 nM.
Regarding `CC(F)CN1[C@H](c2ccc(NC3CN(CCCF)C3)cn2)c2ccc3[nH]ncc3c2C[C@H]1C` (single isomer, unassigned) [Example 66], the concentration for half-maximal inhibition (IC50) stood at 6.2 nM in series [1], 26000 nM on hERG potassium channel and 0.44 nM in series [2].
For `COc1cc(NC2CN(CCCF)C2)ccc1[C@@H]1c2ccc3[nH]ncc3c2C[C@@H](C)N1CC(C)F` (single isomer, unassigned) [Example 67], the concentration for half-maximal inhibition (IC50) on hERG potassium channel was determined as 14000 nM; in series [2], 0.27 nM.
Regarding `COC[C@](C)(F)CN1[C@H](c2ccc(OC3CN(CCCF)C3)cc2OC)c2ccc3[nH]ncc3c2C[C@H]1C` (single isomer, unassigned) [Example 12], the “% downregulation (in parentheses)” value in series [2] (maximum downregulation) was found to be 83%.
Turning to `CC(F)CN1[C@H](c2ccc(NC3CN(CCCF)C3)cn2)c2ccc3[nH]ncc3c2C[C@H]1C` (single isomer, unassigned) [Example 65], the IC50 on hERG potassium channel was 31000 nM; in series [2], 1 nM.
